{"source": "paper PMC5407101", "about": "(Pharmacognosy Magazine, 2017)", "key": {"[1]": {"test_system": "UDP-glucuronosyltransferases (UGTs) in rat liver microsomes", "details": "read-out: reported IC50 value, inhibition of p-NP glucuronidation; RLM; ref Azizi et al. 35; cited from earlier work"}, "[2]": {"test_system": "UDP-glucuronosyltransferases (UGTs) in rat liver microsomes", "experiment": "Inhibition of 4-MU glucuronidation assay in RLM", "format": "in vitro ADME", "details": "ratio of IC50 RKM/RLM"}}, "data": [{"smiles": "O=C(O)Cc1ccccc1Nc1c(Cl)cccc1Cl", "note": "[Diclofenac]", "values": [{"measurement": "IC50", "setting": "[1]", "value": 412, "unit": "µM"}, {"measurement": "fold more potent inhibition of 4-MU glucuronidation with RLM than with RKM", "setting": "[2]", "value": 1.6, "unit": "fold"}]}]}
